# According to PubChem BioAssay (EPA / NIEHS):
# Only a part is listed here, and it is no random draw. The source made the active and inactive calls. The calls were made as follows: active = hit-call score of the fitted dose curve at least 0.9, where 1 is the maximum; inactive = score below 0.9.
# Test: ATG_RORE_CIS: Attagene CIS-FACTORIAL HepG2 Assay for human RAR-related Orphan Receptor Element (RORE) (AID 2282959)
# Settings: HepG2 Attagene cis-factorial RORE reporter, mRNA; actives raise or lower the signal
SMILES,outcome,AC50
CCCCCCCCCOS(=O)(=O)O,inactive,
CC(c1cc2ccccc2s1)N(O)C(N)=O (stereo not given),inactive,
CC(C)c1cccc(C(C)C)c1N1C(=O)c2ccc(O)cc2C1=O,inactive,
CCC(C)(O)CCC=C(C)C (stereo not given),inactive,
CC(=O)OC1C2(C)CCC(C2)C1(C)C (stereo not given),inactive,
Cc1cc(C)nc(NS(=O)(=O)c2ccc(N)cc2)n1,inactive,
CCCCCCCCCCCCCCOS(=O)(=O)O,inactive,
O=C(O)CCN(C1(C(=O)NO)CCCC1)S(=O)(=O)c1ccc(Oc2ccc(F)cc2)cc1,inactive,
CCCCCCCCc1ccc(Nc2ccc(CCCCCCCC)cc2)cc1,inactive,
Cc1ccc2c(c1)C(=O)OC2=O,inactive,
ON(Cc1ccccc1)Cc1ccccc1,inactive,
CCc1cccc(C)c1N(C(=O)CS(=O)(=O)O)C(C)COC (stereo not given),inactive,
COc1ccc(-c2coc3cc(O)cc(O)c3c2=O)cc1,,active: 21.4 µM
CC/C=C\CCOC(=O)CCCCC,inactive,
CCOC(=O)c1ccccc1OC,inactive,
CC1=CC[C@@H](C(C)(C)O)CC1,inactive,
CCCCCCOC(C)=O,inactive,
CCOC(=O)OC(=O)OCC,inactive,
CC1(C)O[C@@H]2C[C@H]3[C@@H]4C[C@H](F)C5=CC(=O)C=C[C@]5(C)[C@@]4(F)[C@@H](O)C[C@]3(C)[C@]2(C(=O)CO)O1,inactive,
CC(C)(CO)COC(=O)C(C)(C)CO,inactive,

SMILES,outcome,AC50
C1CN(SSN2CCOCC2)CCO1,inactive,
O=C(Cl)c1cc(C(=O)Cl)cc(C(=O)Cl)c1,,active: 100 µM
COCc1c(C(C)C)nc(C(C)C)c(/C=C/[C@@H](O)C[C@@H](O)CC(=O)O)c1-c1ccc(F)cc1,inactive,
Cc1noc(NS(=O)(=O)c2ccc(N)cc2)c1C,inactive,
CCCOC(=O)c1c(Cl)c(Cl)c(Cl)c(Cl)c1C(=O)OCCC,inactive,
CCCCCCCCCOC(C)=O,inactive,
CCOC(=O)C(C)Oc1ccc(Oc2nc3ccc(Cl)cc3o2)cc1 (stereo not given),inactive,
NCC1CCCC(CN)C1 (stereo not given),inactive,
CCCCCCCCCCCCCO,inactive,
O=C1CCc2ccccc2O1,inactive,
CCOC(=O)c1ccc(C2CCC(NC[C@H](O)COc3ccc(O)c(NS(C)(=O)=O)c3)CC2)cc1 (stereo not given in full),,active: 57.9 µM
Cc1cccc([N+](=O)[O-])c1C,inactive,
CCC(C)(O)CCCC(C)C (stereo not given),inactive,
O=S(=O)(O)c1ccc2ccccc2c1,inactive,
CCOC(=O)[C@H](O)[C@@H](O)C(=O)OCC,inactive,
OCCNCCO,inactive,
CC(C)CCCCCOC(=O)CCS,inactive,
Cn1c(=O)[nH]c2ncn(C)c2c1=O,inactive,
O=S(=O)(O)c1cc(S(=O)(=O)O)c2c(N=Nc3ccccc3)c(O)ccc2c1,inactive,
CC(C)(C)c1cccc(O)c1,inactive,
